# Data as given in US11207423B2, “Nanocarriers having surface conjugated peptides and uses thereof for sustained local release of drugs” (Northwestern University, priority 2016, dated 2021).
# Columns and labels:
# [1] = Zeta potential measurement (electrophoretic light scattering); format: physicochemical
# Protocol: (§1) Sample characteristics (particle size, polydispersity and zeta-potential) were measured by a dynamic light scattering method using Malvern Zeta Sizer Nano-S90 instrument according to the manufacturer recommendations. Briefly, hydrodynamic diameter (dh) and polydispersity index (PDI) of nanogel/microgels were obtained for 1 mg/mL aqueous solutions at 25° C. in triplicates after sonication for 30 min and centrifugation at 12,000 rpm. Zeta-potential of the samples was measured for the same solutions in standard 1 cm-cuvettesusing zeta-potential option in the company's software. Average of five measurements±SD was registered.
# (§2) Peptide concentration was estimated by BCA (Pierce) protein assay against a standard curve of free peptide. Zeta potential and size was measured on non-rhodamine product using electrophoretic light scattering and dynamic light scattering, respectively (Zetasizer, Malvern). The Z averaged particle size is 15 nm and the full width at half maximum of the distribution peak is 24 nm. Zeta potentials for 1-Arg, 2-Arg, 3-Arg and 4-Arg peptide conjugates were 0.07 mV, 2.2 mV, 4.6 mV and 9.2 mV respectively (Table 2).
# [2] = Particle size measurement (dynamic light scattering); format: physicochemical
# Protocol: as §1, §2
substance,measurement,setting,value
CDEX70-3pyrrol-adipic-N-Sar-Tyr-Asn-Leu-Tyr-Arg-Val-Arg-Ser-amide,release of bioactive peptide per day of the NP-bound amount,"HEPES buffer, pH7.4, 37° C",approximately 2 % per day
same,half-life of peptide release,pH 7.4,28 days
same,Zeta potential,[1],2.31 ± 0.38 mV
same,Particle size,[2],178.3 ± 9.42 nm
